Xi reactivation: activators of X-chromosome reactivation in mouse fibroblasts; XiGFP mouse fibroblasts, % GFP-positive cells imaging, 3 d; cells co-treated with 5-aza-dC sensitizer; scaled so ellipticine positive control = 100%; activation, % at 7.58 µM; hit rate 0.055% among 360,000; AID 743238;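 active = mean normalized replicate activation at least 10% and every replicate at or above 10%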;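 note: 0% = median of on-plate neutral control wells and 100% = ellipticine 6 µM median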
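assay system = SV40-immortalized XiGFP fibroblast cells, line 68-5-11 | buffer or medium = DMEM plus 5-aza-dC sensitizer | doses = single-point pinned compound dosing | times = 3-day compound exposure, then 15 min fixation at room temperature | benchmarks = positive control ellipticine, 6 µM final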
E-sel inducer: induces E-selectin expression in human endothelial cells | HUVEC E-selectin immunofluorescence imaging; normalized: neutral wells 0, TNF-alpha wells 100 | activation, % at 7.58 µM | hit rate 0.37% among 260,000;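 active = mean E-selectin-positive cell signal at least 10% of the positive control, reached in at least 60% of replicates, without over 20% cell loss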
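System: HUVEC / Compound: single concentration / Signal: immunofluorescence imaging / Read-out: percent E-selectin-positive cells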
RAD54 branch: RAD54 (human) branch migration inhibition; RAD54 Holliday junction branch migration, FAM/BHQ fluorescence; inhibition, % at 10.4 µM; hit rate 0.14% among 360,000; AID 602329;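 active = mean normalized replicate activity at least 40 and at least half of replicates scoring 40 or more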;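 note: 0% = median of neutral control wells and 100% = median of positive control wells; inhibitors cause a drop in the FAM fluorescence signal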
RAD52 inh: inhibitors of human RAD52 DNA annealing. P43351. recombinant RAD52 DNA annealing, FRET fluorescence. inhibition, % at 18.7 µM. hit rate 0.46% among 360,000. AID 651710;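 active = every replicate showing at least 50% inhibition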
Yeast UUG start-1: yeast start codon fidelity modulation; activity score, % at 18.7 µM; actives 0.13% (n = 350,000); S. cerevisiae UUG-firefly luciferase reporter, luminescence/redox ratio; AID 602363;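 active means replicate mean at a twofold rise or more, about +100% in these data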;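 further: firefly luciferase made from a UUG start codon reports start codon fidelity; reporter light over untreated wells divided by growth signal over untreated wells; some hits fall short of that in this replicate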
Yeast UUG start-2: yeast start codon fidelity modulation; 540 tested, under 10 active; AID 652061; shares compounds with Yeast UUG start-1; S. cerevisiae UUG-start firefly luciferase, luminescence, 4 h; 100% means double the DMSO signal; activation, % at 38 µM;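 active = signal increase whose fitted curve reaches an absolute level of 40 at a concentration under 10 µM; inactive = activity opposite to the expected increase, or the rest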
Starred values were filed as active, the others as inactive; i = inactive; x = not tested or not shown. A selection: hits, their analogues and other compounds. The true share with any hit is near 0.73%.

Structure,Xi reactivation,E-sel inducer,RAD54 branch,RAD52 inh,Yeast UUG start-1,Yeast UUG start-2
C[C@H](O)C#Cc1cnc2c(c1)C(=O)N([C@H](C)CO)C[C@@H](C)[C@@H](CN(C)C(=O)Nc1ccc(F)cc1)O2,-1,0,3,-21,2,x
O=C(Cc1c[nH]c2ccccc12)N1CCc2ccccc21,x,x,-2,x,344*,-1
O=C(CSc1c[nH]c2ccccc12)N1CCCc2ccccc21,0,x,-7,-11,-5,x
CC(C)CC#Cc1cnc2c(c1)C(=O)N([C@H](C)CO)C[C@@H](C)[C@H](CN(C)Cc1ccccn1)O2,-1,0,-4,0,144*,i
C/C=C/c1cnc2c(c1)C(=O)N([C@H](C)CO)C[C@H](C)[C@@H](CN(C)C(=O)Cc1ccccn1)O2,-1,1,9,-4,3,x
C/C=C/c1cnc2c(c1)C(=O)N([C@@H](C)CO)C[C@@H](C)[C@@H](CN(C)C(=O)Cc1ccccn1)O2,-1,0,-6,-25,143*,i
CO[C@@H](CN(C)S(=O)(=O)c1ccccc1)[C@H](C)CN(C(=O)Nc1ccccc1F)[C@H](C)CO,0,0,1,2,x,x
CC(C)C(=O)Nc1cccc(N2CCN(CCCN3C(=O)C4CCCCN4C3=O)CC2)c1 (stereo unspecified),0,0,-17,12,105*,-3
C[C@@H]1CN([C@@H](C)CO)C(=O)c2cccc(NC(=O)c3cnccn3)c2O[C@H]1CN(C)Cc1ccncc1,-1,-6,2,4,-10,x
COc1ccc(CCNS(=O)(=O)c2ccc(OC)c(OC)c2)cc1OC,0,0,-1,1,-20,x
COc1ccc(CCNS(=O)(=O)c2ccc(Br)cc2)cc1OC,0,0,0,3,16,x
COc1ccc(CCNS(=O)(=O)c2ccc(Cl)cc2)cc1OC,0,0,7,-9,-14,-7
COc1ccc(CCNS(=O)(=O)c2ccccc2)cc1OC,x,x,-6,x,705*,-5
COCCN(CCOC)C(=O)[C@H](CCc1ccccc1)NC(=O)[C@H]1O[C@@H](n2cnc3c(N)ncnc32)[C@H](O)[C@@H]1O,0,0,x,4,x,x
CCCc1nc(-c2ccc(-c3ccc(F)cc3)cc2)no1,x,x,2,x,-9,x
CCCc1nc(-c2cc3ccccc3[nH]c2=O)no1,0,x,-1,-7,227*,13
CN(CC(=O)Nc1cc([N+](=O)[O-])ccc1Cl)Cc1ccc(Br)cc1,0,x,13,x,518*,3
CNC[C@@H]1Oc2ncc(-c3ccc(C)cc3)cc2C(=O)N([C@H](C)CO)C[C@@H]1C,0,0,8,17,-5,x
O=C1CCC(=O)N1OCCCOc1ccc2c(c1)CCC2,x,x,-2,x,active,-1
Cc1ccc(S(=O)(=O)N(C)C[C@@H]2Oc3ccc(NS(=O)(=O)c4c(C)noc4C)cc3C(=O)N([C@@H](C)CO)C[C@@H]2C)cc1,-1,-1,-2,14,6,x
Cc1ccc(S(=O)(=O)N[C@H]2CC[C@@H](CCNC(=O)c3ccc4c(c3)OCO4)O[C@@H]2CO)cc1,0,1,-4,5,170*,i
CC(C)C[C@@H](CN)NC(=O)c1nc[nH]c1C(=O)N[C@@H](Cc1c[nH]c2ccccc12)C(=O)CNC[C@H](C)NC(=O)c1nc[nH]c1C(=O)N[C@@H](CC(=O)O)C(=O)O,0,0,-11,9,180*,7
CC(C)C[C@@H](CNCC(=O)[C@H](Cc1ccccc1)NC(=O)c1[nH]cnc1C(=O)N[C@@H](C)CN)NC(=O)c1nc[nH]c1C(=O)N[C@@H](CC(=O)O)C(=O)O,0,0,-29,-1,0,x
Cc1cccc(NC(=O)Cc2cccs2)n1,x,x,8,x,542*,2
Cc1cc(C)c(S(=O)(=O)N2CCN(S(=O)(=O)N3CCC(C)CC3)CC2)c(C)c1,0,0,0,-9,active,10
NC(=O)CSc1nnc(-c2ccncc2)n1CCc1ccccc1,x,x,-2,x,173*,-2
CCN(CC)S(=O)(=O)c1cccc(-c2nnc(SCC(N)=O)n2CCc2ccccc2)c1,x,x,-9,5,-10,x
CCOc1ccc(C=NC23CN4CN(CN(C4)C2)C3)cc1,x,x,11,x,462*,8

An excerpt from above in order of the Yeast UUG start-1 value, high to low.
structure | RAD52 inh | Yeast UUG start-1 | Yeast UUG start-2
COc1ccc(CCNS(=O)(=O)c2ccccc2)cc1OC | x | 705* | -5
C[C@@H]1CN([C@@H](C)CO)C(=O)c2cccc(NC(=O)c3cnccn3)c2O[C@H]1CN(C)Cc1ccncc1 | 4 | -10 | x
COc1ccc(CCNS(=O)(=O)c2ccc(Cl)cc2)cc1OC | -9 | -14 | -7

Two of the compounds above, with values under each structure.
Results follow in this order: Xi reactivation, E-sel inducer, RAD54 branch, RAD52 inh, Yeast UUG start-1, Yeast UUG start-2
Cc1cccc(NC(=O)Cc2cccs2)n1
    x, x, 8, x, 542*, 2
Cc1cc(C)c(S(=O)(=O)N2CCN(S(=O)(=O)N3CCC(C)CC3)CC2)c(C)c1
    0, 0, 0, -9, active, 10

Assay outcomes deposited in PubChem by Broad Institute.
